These are literature values, as cited in patent publication US20210235703A1, “DISINFECTANT FOR DRINKABLE WATER, FOOD CONTACT, INDUSTRY, SPAS, SWIMMING POOLS AND AIR STERILIZATION” (INT'L CAPITAL INVESTMENT LLC, priority 2015, published 2021).

With chlorous acid, the “pKa for the chlorite ion/chlorous acid equilibrium” value is listed as 1.8.
